Test results published in patent US20180168208A1 (priority 2014, published 2018).
Read-outs that look alike come from different tables or passages of the source.

The chains behind the UniProt entries cited, without tags or fusion partners. A line that says so, or that is headed by a name, gives the form on record, which may keep a tag or linker. Residues count along the entry.
UniProt E3UMS2, 1-296: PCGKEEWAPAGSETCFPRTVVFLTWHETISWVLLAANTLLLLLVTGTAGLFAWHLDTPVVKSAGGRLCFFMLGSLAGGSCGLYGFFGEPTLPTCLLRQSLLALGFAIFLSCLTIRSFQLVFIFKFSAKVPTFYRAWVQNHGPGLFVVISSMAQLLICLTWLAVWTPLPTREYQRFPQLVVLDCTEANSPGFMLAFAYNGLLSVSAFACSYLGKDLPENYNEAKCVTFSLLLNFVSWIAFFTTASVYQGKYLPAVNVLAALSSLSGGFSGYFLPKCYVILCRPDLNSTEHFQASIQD
UniProt A0ABI7Z2I4, 171-420: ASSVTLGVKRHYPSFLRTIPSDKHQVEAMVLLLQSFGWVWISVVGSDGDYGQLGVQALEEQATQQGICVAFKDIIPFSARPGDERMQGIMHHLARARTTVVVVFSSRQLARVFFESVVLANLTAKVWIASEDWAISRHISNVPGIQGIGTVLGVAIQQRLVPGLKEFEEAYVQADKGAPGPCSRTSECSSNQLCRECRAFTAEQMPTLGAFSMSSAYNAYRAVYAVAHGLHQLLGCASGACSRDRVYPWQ
UniProt Q49KI5, with tags, fused parts or gaps E206Q/F654L/N523D partner limits assumed: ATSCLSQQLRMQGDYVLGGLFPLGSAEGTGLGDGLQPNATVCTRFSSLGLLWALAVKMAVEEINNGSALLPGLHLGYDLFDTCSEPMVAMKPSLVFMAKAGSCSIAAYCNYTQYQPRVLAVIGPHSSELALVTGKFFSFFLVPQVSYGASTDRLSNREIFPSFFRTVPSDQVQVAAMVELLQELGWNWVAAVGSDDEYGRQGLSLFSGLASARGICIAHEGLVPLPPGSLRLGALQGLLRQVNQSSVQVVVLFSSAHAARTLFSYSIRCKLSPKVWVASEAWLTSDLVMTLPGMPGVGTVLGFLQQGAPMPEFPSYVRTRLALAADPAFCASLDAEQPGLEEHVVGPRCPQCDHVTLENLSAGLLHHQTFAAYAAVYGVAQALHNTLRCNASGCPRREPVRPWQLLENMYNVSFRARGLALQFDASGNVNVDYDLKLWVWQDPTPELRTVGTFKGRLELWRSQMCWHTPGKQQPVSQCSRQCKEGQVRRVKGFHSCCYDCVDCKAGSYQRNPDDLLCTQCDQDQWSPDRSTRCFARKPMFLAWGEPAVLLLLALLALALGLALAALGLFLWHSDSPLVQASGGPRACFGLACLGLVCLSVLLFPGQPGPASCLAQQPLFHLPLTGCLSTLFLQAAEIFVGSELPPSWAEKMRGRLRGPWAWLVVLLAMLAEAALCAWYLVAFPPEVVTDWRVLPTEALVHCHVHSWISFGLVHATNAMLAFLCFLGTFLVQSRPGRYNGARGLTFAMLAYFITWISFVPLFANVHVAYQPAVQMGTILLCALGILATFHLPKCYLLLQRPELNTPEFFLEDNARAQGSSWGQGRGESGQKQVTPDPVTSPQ

Legend:
T1R1/T1R3 receptor = T1R1/T1R3 receptor (Felis catus, UniProt E3UMS2); settings: for Max resp % of ALa + IMP / Thres + IMP: + IMP (0.2 mM); for Max resp % of Ala +IMP: +IMP (0.2 mM); for Activity: activation of T1R1/T1R3
cat T1R1/T1R3 receptor = cat T1R1/T1R3 receptor (Felis catus, UniProt A0ABI7Z2I4)

Structure (SMILES)	Thres +Alanine (T1R1/T1R3 receptor; + Alanine (20 nM), Table 17)	Max resp % of IMP + Alanine (T1R1/T1R3 receptor; + Alanine, Table 17)	Max resp % of ALa + IMP (T1R1/T1R3 receptor; Table 17)	Thres + IMP (T1R1/T1R3 receptor; Table 17)	Thres +Alanine (T1R1/T1R3 receptor; +Alanine (20 mM), Table 18)	Max resp % of Ala +IMP (T1R1/T1R3 receptor; Table 18)	Activity (T1R1/T1R3 receptor; Table 18)	Max resp ΔF/F + Alanine (T1R1/T1R3 receptor; + Alanine, Table 17)	Max. resp. % of IMP (cat T1R1/T1R3 receptor)	Activity (cat T1R1/T1R3 receptor; +Alanine (20 mM))	Activity (cat T1R1/T1R3 receptor)
CCCC(C)NC(=O)/C=C/c1ccc(OC)c(OC)c1 (stereo not shown)	1 mM	35.2 % of IMP	86.9 % of ALa	0.55 nM	1 mM	86.9 % of Ala	active	–	–	–	–
CCOC(=O)C(NC(=O)c1ccc2c(c1)OCO2)C(C)C (stereo not shown)	10 mM	25.6 % of IMP	52.8 % of ALa	1 nM	10 mM	52.8 % of Ala	active	0.3715	–	–	–
O=P(O)(O)OC[C@H]1O[C@@H](n2cnc3c2ncn2ccnc32)C[C@@H]1O	–	–	–	–	–	–	–	–	70.0 % of IMP	active	–
O=P(O)(O)OC[C@H]1O[C@@H](n2cnc3c(=S)nc[nH]c32)[C@H](O)[C@@H]1O	–	–	–	–	–	–	–	–	111.7 % of IMP	–	active
